Test results taken from PubChem BioAssay AID2551 (National Center for Advancing Translational Sciences (NCATS), 2010).
Only a part is listed here, and it is no random draw. Records with an inconclusive call do not appear. The source made the active and inactive calls. Calls follow the shape of the dose curve; as a rule, active = well fitted inhibition curve with a large enough effect; inconclusive = small, poorly fitted or top-dose-only effect, or effect the other way; inactive = no such curve, though single readings can be large or run the other way.

The chains behind the UniProt entries cited, without tags or fusion partners.
UniProt P51450, whole entry: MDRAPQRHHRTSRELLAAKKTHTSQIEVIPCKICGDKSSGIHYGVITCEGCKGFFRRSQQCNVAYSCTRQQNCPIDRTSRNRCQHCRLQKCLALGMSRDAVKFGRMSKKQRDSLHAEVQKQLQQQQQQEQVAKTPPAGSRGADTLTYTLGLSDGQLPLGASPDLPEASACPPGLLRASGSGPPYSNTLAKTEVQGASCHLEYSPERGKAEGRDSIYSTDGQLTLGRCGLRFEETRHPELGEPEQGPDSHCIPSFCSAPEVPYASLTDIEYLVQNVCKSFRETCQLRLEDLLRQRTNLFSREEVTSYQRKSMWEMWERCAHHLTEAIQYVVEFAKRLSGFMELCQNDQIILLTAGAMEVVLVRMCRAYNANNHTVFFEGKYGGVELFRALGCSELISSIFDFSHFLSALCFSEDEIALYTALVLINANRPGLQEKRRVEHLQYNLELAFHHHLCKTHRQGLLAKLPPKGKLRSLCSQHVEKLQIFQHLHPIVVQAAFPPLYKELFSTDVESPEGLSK

The compounds below were run against Nuclear receptor ROR-gamma (Mus musculus) (UniProt P51450) (assay: qHTS for inhibitors of ROR gamma transcriptional activity). Conditions: Drosophila S2 Gal4-RORgamma UAS-luciferase reporter, 20 h; at 53.6 µM (top of the series).
% is scaled to controls: 0 for no effect and ±100 for the full control effect.
Also: nearly all actives have a fitted effect of over 60% in size.

Q: How did the activity change, negative = inhibition turn out when O=[N+]([O-])C(Cl)(Cl)Cl was run?
A: inactive: -0.161%

Q: For CCC(=O)N(c1ccccc1)C1CCN(CCc2ccccc2)CC1, which activity change, negative = inhibition is on record?
A: inactive: -18.2%
